Molecular target: T1, CYP24 (Homo sapiens, UniProt Q07973)
T1 construct: When the HPK1A-ras cells are 80-90% confluent, add 1 μL 10^−5 M 1,25(OH)2D3 to 1 mL medium; endogenous in cells; host or cells: HPK1A-ras cells induced with 10^-8 M 1,25(OH)2D3
T1 sequence (Q07973 36-514): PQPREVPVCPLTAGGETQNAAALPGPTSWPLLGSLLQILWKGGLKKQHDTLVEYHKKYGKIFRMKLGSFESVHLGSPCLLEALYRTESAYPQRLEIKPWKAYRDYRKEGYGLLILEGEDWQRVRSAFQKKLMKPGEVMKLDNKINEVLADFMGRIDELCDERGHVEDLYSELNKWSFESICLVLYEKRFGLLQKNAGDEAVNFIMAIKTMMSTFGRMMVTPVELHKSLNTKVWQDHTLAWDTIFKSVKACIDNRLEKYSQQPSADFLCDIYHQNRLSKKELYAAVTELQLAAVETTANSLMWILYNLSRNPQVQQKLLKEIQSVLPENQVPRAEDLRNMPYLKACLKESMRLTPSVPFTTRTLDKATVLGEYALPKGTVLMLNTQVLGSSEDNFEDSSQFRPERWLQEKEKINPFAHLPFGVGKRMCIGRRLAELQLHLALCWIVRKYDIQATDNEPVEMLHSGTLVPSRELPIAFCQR
Assay: CYP24 enzyme assay (induced HPK1A-ras cells)
Type: cell-based
Details: [3H]-1,25(OH)2D3 substrate
Description: CYP24 Enzyme Assay (Induced KPK1A-ras Cells)
(i) Material and Reagents:
Saturated KCl: KCl 30 g, H2O400 ml
1. Induction of HPK1A-ras cells (The day before assay)
When the HPK1A-ras cells are 80-90% confluent, add 1 μL 10^−5 M 1,25(OH)2D3 to 1 mL medium in the plate (final concentration is 10^−8 M).
2. Preparation of cell suspension
After 18 to 20 hours induction, remove the medium and wash the cell twice with PBS. Then tripsinize the cells from plate, centrifuge (2,000 rpm, 5 min) and suspend cells pellet in DMEM medium+1%BSA.
Count the cells and adjust cells density to 250,000/150 μL, add 150 μL cell suspension to each well in 48-well plate. (including 3 well as no cell control, and 3 well cells without drug or inhibitor as control).
3. Add 25 μL ketoconazole (final concentration 10^−5 M, 10^−6 M, 10^−7 M, 10^−1 M) or drugs into each designated well. Keep the plate in 37° C. for 10 min.
4. Preparation of substrate
Take certain amount of DMEM+1%BSA medium (25*Well number+200) μL to a tube, add certain amount of 3H-1,25(OH)2D3 (well number+2) μL and certain amount of 100 mM DPPD (well number/5) μL and mix them by vortex.
Add 25 mL substrate to each well, incubate the plate at 37° C. for 3 hour.
Add 25 mL substrate to counting plate (2 well) as a total count.
6. Lipid extraction and counting
Add 500 μL methanol to each well to stop the reaction, transfer them to tube […]

- IC50: 28 nM
SMILES: C=C1/C(=C\C=C2/CCC[C@]3(C)[C@@H]([C@H](C)CCS(=O)(=O)c4ccccc4)CC[C@@H]23)C[C@@H](O)C[C@@H]1O [I(a)]
